Laboratory results reported in patent US12661336B2, “Polymorphs of phenyl pyrrole aminoguandium salts” (SYNACT PHARMA APS, priority 2021, dated 2026).

Assay: Equilibrium solubility at pH 4.5 and pH 6.8 at 37° C., WHO Technical Report Series 1019 protocol (Table 44)
Format: physicochemical

In the case of “N-{3-[1-(2-nitrophenyl)-1H-pyrrol-2-yl]-allylidene}-aminoguanidinium succinate [AP1189 succinate]”, the “Equilibrium solubility pH 4.5” value (buffer pH 4.5, 22 h) is reported as 370 mg ± 3 mg/250 mL and the “Equilibrium solubility pH 6.8” value (buffer pH 6.8, 22 h) is reported as 261 mg ± 13 mg/250 mL.
